# Reference: PubChem BioAssay AID720709 (National Center for Advancing Translational Sciences (NCATS), 2013)
# Chains of the proteins cited; added tags and fusions are not shown. Lines headed by an entry give the natural chain unless they say otherwise; changes in a name come on top.
# UniProt O95398: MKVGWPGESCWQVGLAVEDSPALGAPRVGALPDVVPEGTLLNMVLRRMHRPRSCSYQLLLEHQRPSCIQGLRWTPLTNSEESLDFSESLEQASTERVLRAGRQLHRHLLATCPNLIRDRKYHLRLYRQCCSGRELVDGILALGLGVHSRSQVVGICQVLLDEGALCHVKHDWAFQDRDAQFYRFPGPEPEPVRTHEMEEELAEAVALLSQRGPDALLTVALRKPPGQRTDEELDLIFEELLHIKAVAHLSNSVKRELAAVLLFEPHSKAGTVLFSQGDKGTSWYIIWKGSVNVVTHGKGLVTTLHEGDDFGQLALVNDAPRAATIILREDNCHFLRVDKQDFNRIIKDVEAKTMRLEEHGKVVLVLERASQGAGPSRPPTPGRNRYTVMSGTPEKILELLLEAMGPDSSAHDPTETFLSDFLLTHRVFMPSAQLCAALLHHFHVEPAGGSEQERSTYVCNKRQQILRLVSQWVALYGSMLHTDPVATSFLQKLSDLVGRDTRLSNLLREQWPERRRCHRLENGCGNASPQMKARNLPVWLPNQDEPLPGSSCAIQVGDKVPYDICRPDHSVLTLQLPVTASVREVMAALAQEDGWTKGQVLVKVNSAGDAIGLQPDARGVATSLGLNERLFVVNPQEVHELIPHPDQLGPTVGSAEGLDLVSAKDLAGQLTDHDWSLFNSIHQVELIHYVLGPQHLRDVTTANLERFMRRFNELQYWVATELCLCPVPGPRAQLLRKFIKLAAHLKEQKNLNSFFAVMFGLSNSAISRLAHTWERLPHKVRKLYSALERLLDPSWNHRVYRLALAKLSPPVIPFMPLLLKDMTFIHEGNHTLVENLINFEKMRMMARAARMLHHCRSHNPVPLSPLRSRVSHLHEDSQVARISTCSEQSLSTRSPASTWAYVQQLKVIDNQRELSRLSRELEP
# Only a part is listed here, and it is no random draw. Results filed as inconclusive are left out. Calls of active or inactive are those of the source. Calls follow the shape of the dose curve; as a rule, active = well fitted inhibition curve with a large enough effect; inconclusive = small, poorly fitted or top-dose-only effect; inactive = no such curve, though single readings can be large or run the other way.
# Target: Rap guanine nucleotide exchange factor 3 (Homo sapiens) (UniProt O95398)
# Assay: qHTS for Antagonist of cAMP-regulated guanine nucleotide exchange factor 3 (EPAC1): primary screen;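 also: plate controls were vehicle for no effect and positive control for full effect; nearly all actives have a fitted effect of over 50% in size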
# Settings: EPAC1 GEF assay, Rap1b-BODIPY-GDP exchange fluorescence; at 115 µM (top of the series)
# From the text: In multi-cellular eukaryotic organisms, the effects of cAMP are transduced by two ubiquitously-expressed intracellular cAMP receptors, the classic protein kinase A/cAMP-dependent protein kinase (PKA/cAPK) and the more recently discovered exchange protein directly activated by cAMP/cAMP-regulated guanine nucleotide exchange factor (EPAC/cAMP-GEF). Both PKA and EPAC are ubiquitously expressed in all tissues, and an increase in intracellular cAMP levels will lead to the activation of both PKA and EPAC. Therefore, careful dissections of the individual role and relative contribution of EPAC and PKA within the overall cAMP signaling in various model systems are critical for further elucidating the mechanism of cAMP signaling. To date no EPAC-specific antagonists and agonist, as well as isoform-specific agonists have been reported, and developing EPAC-specific pharmacological probes to determine the physiological functions that EPAC play in the overall cAMP-mediated signaling remains a major challenge within the research field. Furthermore, identified regulators of EPAC may lead to new mechanism-based therapeutic strategies specifically targeting the EPAC / cAMP-signaling components as EPAC has been implicated to play important roles in major human pathological conditions such as diabetes, heart disease, and cancer. This qHTS will be used to screen the Molecular Libraries Small Molecule Repository (MLSMR) as a concentration-titration series using the NCGC unique quantitative screening (qHTS) platform to find inhibitors for EPAC1. In addition, this assay will also be used as a counterscreen for the EPAC2 qHTS. This fluorescent based assay is developed and validated for EPAC1 that measures exchange using EPAC effector Rap1 complex with BODIPY-GDP, a GDP analog with a tethered fluorophores. Inhibitors are identified by monitoring the change in fluorescence signal as the exchanged free BODIPY-GDP has a reduced fluorescence compared to Rap1-bound BODIPY-GDP. Decrease in signal (inhibition) is the desired outcome for the EPAC1 antagonist while no activity in this assay is desired for the EPAC2 antagonist counterscreen. de Rooij, J., Zwartkruis, F. J., Verheijen, M. H., Cool, R. H., Nijman, S. M., Wittinghofer, A., and Bos, J.L. (1998) Nature 396, 474-477 [2] Kawasaki, H., Springett, G. M., Mochizuki, N., Toki, S., Nakaya, M., Matsuda, M., Housman, D. E., and Graybiel, A. M. (1998) Science 282, 2275-2279 NIH Chemical Genomics Center [NCGC] NIH Molecular Libraries Probe Centers Network [MLPCN] MLPCN Grant: NS066510 Assay Submitter (PI): Xiaodong Cheng, The University of Texas, Medical Branch
# Briefly, three uL of reagents (100 nM EPAC1, 250 nM RAP1B-BODIPY-GDP, 50 uM GDP) were dispensed into a 1536-well Greiner black solid-bottom medium binding assay plate. Controls and test compounds (23 nL) were transferred to the plate via a Kalypsys pin tool equipped with a 1536-pin array. The plates were centrifuged at 1,000 rpm for 15 seconds followed by 5 minute incubation at room temperature. The assay plates were read at 5 minute intervals for 30 minutes in the ViewLux plate reader using 480nm excitation and 540nm emission filters. The results were normalized to the […] positive control ATA and DMSO.
row,Structure (SMILES),"activity change, negative = inhibition"
1,N#C/C(=C\c1ccc(N(CCBr)CCBr)cc1)C(N)=O,inactive: -0.307%
2,CC(=O)c1ccc(N2CC2c2ccncc2)cc1 (stereo not drawn),inactive: 9.43%
3,COC(=O)C1(C)COP(=O)(NCc2ccccc2)OC1 (stereo not drawn),inactive: 6.63%
4,CC(=O)Nc1ccc([As](=O)(O)O)c(O)c1,inactive: -4.04%
5,CC(=O)Nc1ccc(Oc2c([N+](=O)[O-])cc([N+](=O)[O-])cc2[N+](=O)[O-])cc1,inactive: -19.8%
6,O=P1(Nc2nc3ccc(Cl)cc3s2)COc2ccccc2O1 (stereo not drawn),inactive: 7.76%
7,CCOc1ccc(C2=NCC(CBr)S2)cc1 (stereo not drawn),inactive: -12.6%
8,CC(C)(C)C(=O)NC(Sc1ccccc1)C(Cl)(Cl)Cl (stereo not drawn),inactive: -9.81%
9,CCc1cc(O)c([N+](=O)[O-])c(C)c1[N+](=O)[O-],inactive: -0.549%
10,O=P(Nc1nccs1)(c1ccccc1)c1ccccc1,inactive: 1.93%
11,CC(C)C(=O)NC(Sc1ccccc1)C(Cl)(Cl)Cl (stereo not drawn),inactive: -16%
12,c1nnnn1CCn1cnnn1,inactive: -2.22%
13,O=[As](O)(c1ccccc1)c1ccc(O)cc1,inactive: 4.67%
14,O=[N+]([O-])c1ncn(CCn2cnc([N+](=O)[O-])n2)n1,inactive: -0.794%
15,CC(=O)NC(SC(=S)N(C)C)C(Cl)(Cl)Cl (stereo not drawn),inactive: -3.77%
16,O=[N+]([O-])c1ccc(O)c(/C=N/Nc2ccc([N+](=O)[O-])cc2[N+](=O)[O-])c1,inactive: -20.3%
17,O=C(OC1CN2CCC1CC2)c1cccc(Cl)c1 (stereo not drawn),inactive: 0.907%
18,Nc1ccc([As](=O)(O)c2ccc([N+](=O)[O-])cc2)cc1,inactive: -1.26%
19,C(Cc1nn[nH]n1)Cc1nn[nH]n1,inactive: -6.88%
20,CN(C)C1(CNC(=O)c2ccc(Cl)c(S(N)(=O)=O)c2)CCCCC1,inactive: 2.02%
21,O=P(Nc1ccccn1)(c1ccc(Br)cc1)c1ccc(Br)cc1,inactive: 0.688%
22,COc1ccc(N)c([N+](=O)[O-])c1[N+](=O)[O-],inactive: 6.29%
23,O=P(Nc1nc2ccccc2s1)(c1ccccc1)c1ccccc1,inactive: -22.1%
24,C[C@H]1OP(=O)(Oc2ccccc2)[C@H](O)[C@H](O)[C@H]1N=[N+]=[N-] (stereo partly drawn),inactive: 6.69%
25,O=[N+]([O-])c1ncn(CCn2ncnc2[N+](=O)[O-])n1,inactive: 3.7%
26,CC(C)(C)C(=O)NC(Sc1ccncn1)C(Cl)(Cl)Cl (stereo not drawn),inactive: 12.1%
27,O=C(O)CNc1ccc([As](=O)(O)O)cc1,inactive: 1.59%
28,O=[N+]([O-])c1cccc(NC2=NCC(CBr)S2)c1 (stereo not drawn),inactive: -5.6%
